Results on one compound are retold here after patent US12276657B2, “Detection of PAR in the CSF of patients with Parkinson's disease” (The Johns Hopkins University, priority 2017, dated 2025).

The subject of this assay is SH-SYSY cells. Kind of assay: α-syn aggregation and PARP activation in SH-SYSY cells transfected with α-syn (MNNG or PAR delivery). The class given is cell-based. As to conditions: 50 μM MNNG 15 min.

As to `CN(N=O)C(=N)N[N+](=O)[O-]`, where the note is “PARP-1 KO SH-SYSY cells”, the “aggregation of α-syn after MNNG in PARP-1 KO cells” value is “has no effect in PARP-1 KO SH-SYSY cells”. The “aggregation of overexpressed α-syn after MNNG” value (WT SH-SYSY cells, 6 h after) is “enhances the aggregation of overexpressed WT or A53T α-syn”.
